Test results reported in PubChem BioAssay (NCI).
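Tested at 5 concentrations; 48 h exposure; 96-well plates; endpoints linearly interpolated, else capped at highest concentration. At the GI50, growth is halved. Definition used: TGI = concentration required for complete inhibition of growth.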

Assays:
Experiment in all cases: NCI anticancer screen, dose series, 48 h; in the data active = GI50 below about 0.43 µM; inactive = the rest
NCI-H460 lung = test system: NCI-H460 lung
DLD-1 colon = test system: DLD-1 colon
KM12 colon = test system: KM12 colon
UACC-257 melanoma = test system: UACC-257 melanoma
LOX IMVI melanoma = test system: LOX IMVI melanoma
SK-MEL-28 melanoma = test system: SK-MEL-28 melanoma
SF-268 CNS = test system: SF-268 CNS
SK-MEL-2 melanoma = test system: SK-MEL-2 melanoma
U251 CNS = test system: U251 CNS
DMS 273 small cell lung = test system: DMS 273 small cell lung
NCI-H322M lung = test system: NCI-H322M lung
A498 renal = test system: A498 renal
LXFL 529 NSCLC = test system: LXFL 529 NSCLC
KM20L2 colon = test system: KM20L2 colon
A549 NSCLC = test system: A549 NSCLC
HCT-15 colon = test system: HCT-15 colon
NCI-H226 lung = test system: NCI-H226 lung
DMS 114 small cell lung = test system: DMS 114 small cell lung
HL-60(TB) leukemia = test system: HL-60(TB) leukemia
NCI-H522 lung = test system: NCI-H522 lung
SK-MEL-5 melanoma = test system: SK-MEL-5 melanoma
XF 498 CNS = test system: XF 498 CNS
RXF 393 renal = test system: RXF 393 renal
M14 melanoma = test system: M14 melanoma
HOP-92 NSCLC = test system: HOP-92 NSCLC
HT29 colon = test system: HT29 colon
SNB-19 CNS = test system: SNB-19 CNS
HOP-62 NSCLC = test system: HOP-62 NSCLC
OVCAR-3 ovarian = test system: OVCAR-3 ovarian
MALME-3M melanoma = test system: MALME-3M melanoma
TK-10 renal = test system: TK-10 renal
M19-MEL melanoma = test system: M19-MEL melanoma
EKVX NSCLC = test system: EKVX NSCLC
CCRF-CEM leukemia = test system: CCRF-CEM leukemia
SF-295 CNS = test system: SF-295 CNS
NCI-H23 lung = test system: NCI-H23 lung
OVCAR-8 ovarian = test system: OVCAR-8 ovarian
786-0 renal = test system: 786-0 renal
UACC-62 melanoma = test system: UACC-62 melanoma
CAKI-1 renal = test system: CAKI-1 renal
SNB-75 CNS = test system: SNB-75 CNS
HCC-2998 colon = test system: HCC-2998 colon
RPMI-8226 leukemia = test system: RPMI-8226 leukemia
UO-31 renal = test system: UO-31 renal
SK-OV-3 ovarian = test system: SK-OV-3 ovarian
RXF-631 renal = test system: RXF-631 renal
SF-539 CNS = test system: SF-539 CNS
COLO 205 colon = test system: COLO 205 colon
SW-620 colon = test system: SW-620 colon
K-562 leukemia = test system: K-562 leukemia
IGROV1 ovarian = test system: IGROV1 ovarian
SNB-78 CNS = test system: SNB-78 CNS
MOLT-4 leukemia = test system: MOLT-4 leukemia
SN12C renal = test system: SN12C renal

Cc1[nH]c2ccc([N+](=O)[O-])cc2c1CC(CC[N+](=O)[O-])[N+](=O)[O-] (stereo not drawn)
inactive: GI50 (NCI-H460 lung) > 100 µM | GI50 (DLD-1 colon) 100 µM | GI50 (KM12 colon) > 100 µM | GI50 (UACC-257 melanoma) > 100 µM | GI50 (LOX IMVI melanoma) 88.4 µM | GI50 (SK-MEL-28 melanoma) > 100 µM | GI50 (SF-268 CNS) > 100 µM | GI50 (SK-MEL-2 melanoma) > 100 µM | GI50 (U251 CNS) > 100 µM | GI50 (DMS 273 small cell lung) > 100 µM | GI50 (NCI-H322M lung) > 100 µM | GI50 (A498 renal) > 100 µM | GI50 (LXFL 529 NSCLC) 44.2 µM | GI50 (KM20L2 colon) > 100 µM | GI50 (A549 NSCLC) > 100 µM | GI50 (HCT-15 colon) > 100 µM | GI50 (NCI-H226 lung) 37.2 µM | GI50 (DMS 114 small cell lung) 55 µM | GI50 (HL-60(TB) leukemia) 54.9 µM | GI50 (NCI-H522 lung) 43.1 µM | GI50 (SK-MEL-5 melanoma) 91.3 µM | GI50 (XF 498 CNS) > 100 µM | GI50 (RXF 393 renal) 38.4 µM | GI50 (M14 melanoma) > 100 µM | GI50 (HOP-92 NSCLC) 15.7 µM | GI50 (HT29 colon) > 100 µM | GI50 (SNB-19 CNS) > 100 µM | GI50 (HOP-62 NSCLC) 50.4 µM | GI50 (OVCAR-3 ovarian) 71.5 µM | GI50 (MALME-3M melanoma) > 100 µM | GI50 (TK-10 renal) > 100 µM | GI50 (M19-MEL melanoma) > 100 µM | GI50 (EKVX NSCLC) 75.8 µM | GI50 (CCRF-CEM leukemia) 32.4 µM | GI50 (SF-295 CNS) > 100 µM | GI50 (NCI-H23 lung) > 100 µM | GI50 (OVCAR-8 ovarian) 63.1 µM | GI50 (786-0 renal) > 100 µM | GI50 (UACC-62 melanoma) 61.3 µM | GI50 (CAKI-1 renal) > 100 µM | GI50 (SNB-75 CNS) 61.3 µM | GI50 (HCC-2998 colon) > 100 µM | GI50 (RPMI-8226 leukemia) 29.8 µM | GI50 (UO-31 renal) 53 µM | GI50 (SK-OV-3 ovarian) > 100 µM | GI50 (RXF-631 renal) > 100 µM | GI50 (SF-539 CNS) > 100 µM | GI50 (COLO 205 colon) > 100 µM | GI50 (SW-620 colon) > 100 µM | GI50 (K-562 leukemia) 58.9 µM | GI50 (IGROV1 ovarian) > 100 µM | GI50 (SNB-78 CNS) 36 µM | GI50 (MOLT-4 leukemia) 46.8 µM | GI50 (SN12C renal) > 100 µM
> 100 µM: TGI (NCI-H460 lung) | TGI (DLD-1 colon) | TGI (KM12 colon) | TGI (UACC-257 melanoma) | TGI (LOX IMVI melanoma) | TGI (SK-MEL-28 melanoma) | TGI (SF-268 CNS) | TGI (SK-MEL-2 melanoma) | TGI (U251 CNS) | TGI (DMS 273 small cell lung) | TGI (NCI-H322M lung) | TGI (A498 renal) | TGI (LXFL 529 NSCLC) | TGI (KM20L2 colon) | TGI (A549 NSCLC) | TGI (HCT-15 colon) | TGI (NCI-H226 lung) | TGI (DMS 114 small cell lung) | TGI (HL-60(TB) leukemia) | TGI (NCI-H522 lung) | TGI (SK-MEL-5 melanoma) | TGI (XF 498 CNS) | TGI (RXF 393 renal) | TGI (M14 melanoma) | TGI (HOP-92 NSCLC) | TGI (HT29 colon) | TGI (SNB-19 CNS) | TGI (HOP-62 NSCLC) | TGI (OVCAR-3 ovarian) | TGI (MALME-3M melanoma) | TGI (TK-10 renal) | TGI (M19-MEL melanoma) | TGI (EKVX NSCLC) | TGI (CCRF-CEM leukemia) | TGI (SF-295 CNS) | TGI (NCI-H23 lung) | TGI (OVCAR-8 ovarian) | TGI (786-0 renal) | TGI (UACC-62 melanoma) | TGI (CAKI-1 renal) | TGI (SNB-75 CNS) | TGI (HCC-2998 colon) | TGI (RPMI-8226 leukemia) | TGI (UO-31 renal) | TGI (SK-OV-3 ovarian) | TGI (RXF-631 renal) | TGI (SF-539 CNS) | TGI (COLO 205 colon) | TGI (SW-620 colon) | TGI (K-562 leukemia) | TGI (IGROV1 ovarian) | TGI (SNB-78 CNS) | TGI (MOLT-4 leukemia) | TGI (SN12C renal)
